The list shows a part of the results, in another mix than the full data. The source made the active and inactive calls.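 How the source made its calls: active means viability at or below 50% in the single dose screen; inactive means viability above 50%.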

Viability data for 32 molecules are collected here from PubChem BioAssay AID719 (SRMLSC, 2007).

The test can be described thus: antiproliferative effect on LL 47 fibroblasts – human, LL 47 cells, CellTiter-Glo luminescence, primary screen (AID 719).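 Further: compound exposure lasted 72 h before the ATP readout; 100% = median luminescence of untreated cell-only wells.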 As to conditions: LL 47 human lung fibroblast viability, ATP luminescence; at 10 µM; hits give low values. Put shortly: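 Material: Human LL 47 lung fibroblast cells | Input: 1,150 cells/well | Buffer or medium: IMEM plus 15% FBS | Compound dosing: 0.1% DMSO in all compound wells | Times: Overnight cell rest, 72 h compound treatment at 37 °C | Signal: CellTiter-Glo luminescence measuring cellular ATP | Measure: % viability versus median cells-only luminescence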
For `CP(=S)(Nn1cnnc1)Oc1ccccc1` (configuration not stated), the viability – broadly, a read-out of living cells in per cent, often relative to untreated cells – is inactive: 96%.

For the molecule `CP(=O)(NC(=O)Nc1ccccc1)Oc1ccccc1` (configuration not stated), the viability is inactive: 101%.

`CCOP(C)(=S)SCC(=O)NC(C)C(=O)O` (configuration not stated): the viability was inactive: 112%.

On to `CP(=O)(Nc1ccccn1)Oc1ccc(Cl)cc1` (configuration not stated), for which the viability is inactive: 101%.

Regarding `Cc1ccc(NP(C)(=O)Oc2ccccc2)c(C)c1` (configuration not stated), the viability was inactive: 106%.

With `COc1ccccc1OP(C)(=O)Nc1ccc(C)cc1` (configuration not stated), the viability was inactive: 107%.

As for `COc1ccc(OP(C)(=O)Nc2cccc(F)c2)cc1` (configuration not stated), the viability is inactive: 100%.

Take `Cc1cc(C)cc(OP(C)(=O)Nc2ccc(C)cc2C)c1` (configuration not stated): the viability was inactive: 97.7%.

With `Cc1ccc(C)c(NP(C)(=O)Oc2ccccc2)c1` (configuration not stated), the viability is inactive: 99.8%.

As for `Cc1cc(C)cc(OP(C)(=O)Nc2ccccn2)c1` (configuration not stated), the viability is inactive: 95.1%.

In the case of `Cc1nc2ccc3ccccc3c2s1.O=[N+]([O-])c1cc([N+](=O)[O-])c(O)c([N+](=O)[O-])c1`, the viability is inactive: 107%.

Turning to `COc1ccccc1OP(C)(=O)Nc1c(C)cccc1C` (configuration not stated), the viability was inactive: 109%.

Consider `CN(C)CCOC(=O)C(O)(c1ccccc1)C1CCCCC1` (configuration not stated), for which the viability is inactive: 98.7%.

On to `CCOP(C)(=S)SCC(=O)NC(C)(CC)C(=O)O` (configuration not stated), for which the viability was inactive: 94.9%.

`CP(=O)(Nc1ccc2c(c1)OCCO2)Oc1ccccc1` (configuration not stated): the viability was inactive: 99.5%.

For `Cc1ccccc1NP(C)(=O)Nc1ccccc1C`, the viability is inactive: 96.5%.

Take `CP(=O)(Nc1ccccc1F)Oc1ccccc1` (configuration not stated): the viability is inactive: 97.2%.

Turning to `CCN(CC)CCCOC(=O)C(O)(c1ccccc1)C1CCCCC1` (configuration not stated), the viability is inactive: 85.1%.

For `CP(=O)(Nc1ccccc1)Oc1ccc(F)cc1` (configuration not stated), the viability was inactive: 100%.

For the molecule `COc1ccccc1OP(C)(=O)Nc1ccc(C)c(C)c1` (configuration not stated), the viability was inactive: 109%.

For `Cc1nc2ccc3ccccc3c2o1.O=[N+]([O-])c1cc([N+](=O)[O-])c(O)c([N+](=O)[O-])c1`, the viability was inactive: 112%.

With `COc1ccc(OP(C)(=O)Nc2ccccn2)cc1` (configuration not stated), the viability is inactive: 111%.

As to `CN(C)CCOC(=O)C(O)(c1ccccc1)C1CCCC1` (configuration not stated), the viability is inactive: 100%.

Consider `Cc1c(NP(C)(=O)Oc2ccc(C(C)C)cc2)c(=O)n(-c2ccccc2)n1C` (configuration not stated), for which the viability was inactive: 106%.

Turning to `COc1ccccc1OP(C)(=O)Nc1ccc(C)cc1C` (configuration not stated), the viability is inactive: 96.3%.

Take `CP(=O)(Nc1ccccn1)Oc1ccccc1` (configuration not stated): the viability was inactive: 96.8%.

With `CCc1ccc(OP(C)(=O)O)cc1`, the viability is inactive: 96.8%.

For `COc1ccccc1OP(C)(=O)Nc1c(C)n(C)n(-c2ccccc2)c1=O` (configuration not stated), the viability was inactive: 101%.

With `CP(=O)(Oc1ccccc1)N1CCOC1=O` (configuration not stated), the viability is inactive: 109%.

For `CC(C)(C)c1ccc(OP(C)(=O)O)cc1`, the viability is inactive: 102%.

As to `CP(=O)(Nc1ccc(Cl)cc1)Oc1ccc(F)cc1` (configuration not stated), the viability is inactive: 101%.

Regarding `CP(=O)(OC12CC3CC(CC(C3)C1)C2)OC12CC3CC(CC(C3)C1)C2`, the viability is inactive: 92.2%.
